The chains behind the UniProt entries cited, without tags or fusion partners.
UniProt P42336, whole entry: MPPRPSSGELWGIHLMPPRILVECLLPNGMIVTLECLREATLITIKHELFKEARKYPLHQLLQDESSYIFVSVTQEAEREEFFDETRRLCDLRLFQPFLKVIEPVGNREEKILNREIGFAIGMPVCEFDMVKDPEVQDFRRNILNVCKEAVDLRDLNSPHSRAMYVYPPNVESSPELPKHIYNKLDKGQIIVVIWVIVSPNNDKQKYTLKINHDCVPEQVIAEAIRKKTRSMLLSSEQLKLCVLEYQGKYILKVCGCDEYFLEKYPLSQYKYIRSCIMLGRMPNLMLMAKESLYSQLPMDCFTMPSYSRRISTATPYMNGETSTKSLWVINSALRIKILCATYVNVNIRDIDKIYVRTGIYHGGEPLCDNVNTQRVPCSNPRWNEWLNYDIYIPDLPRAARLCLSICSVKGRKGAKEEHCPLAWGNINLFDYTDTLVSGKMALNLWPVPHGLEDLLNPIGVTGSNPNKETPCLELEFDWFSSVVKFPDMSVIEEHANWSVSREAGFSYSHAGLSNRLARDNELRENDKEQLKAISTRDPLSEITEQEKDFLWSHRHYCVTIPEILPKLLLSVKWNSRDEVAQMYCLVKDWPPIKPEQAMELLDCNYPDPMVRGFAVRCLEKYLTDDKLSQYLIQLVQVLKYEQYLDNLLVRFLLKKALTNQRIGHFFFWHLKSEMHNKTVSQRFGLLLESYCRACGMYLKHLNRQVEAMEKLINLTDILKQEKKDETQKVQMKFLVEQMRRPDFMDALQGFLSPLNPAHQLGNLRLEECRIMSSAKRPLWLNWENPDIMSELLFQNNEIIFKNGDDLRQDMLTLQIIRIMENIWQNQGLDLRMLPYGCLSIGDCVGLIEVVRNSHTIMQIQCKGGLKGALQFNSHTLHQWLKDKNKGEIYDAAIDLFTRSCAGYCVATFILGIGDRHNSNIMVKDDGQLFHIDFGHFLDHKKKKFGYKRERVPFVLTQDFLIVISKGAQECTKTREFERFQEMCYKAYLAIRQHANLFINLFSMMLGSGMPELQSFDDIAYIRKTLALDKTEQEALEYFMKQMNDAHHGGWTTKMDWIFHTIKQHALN

In ChEMBL document CHEMBL4359834, “(S)-4-(Difluoromethyl)-5-(4-(3-methylmorpholino)-6-morpholino-1,3,5-triazin-2-yl)pyridin-2-amine (PQR530), a Potent, Orally Bioavailable, and Brain-Penetrable Dual Inhibitor of Class I PI3K and mTOR Kinase” (J Med Chem, 2019):

Biological target: Phosphatidylinositol 4,5-bisphosphate 3-kinase catalytic subunit alpha isoform (Homo sapiens, UniProt P42336)
Test: Displacement of Alexafluor labelled kinase tracer314 from recombinant N-terminal His6-tagged PI3K p110alpha (unknown origin) incubated for 1 hr by FRET-based LanthaScreen Eu kinase binding assay

- Ki: 11.6 nM
SMILES: C[C@H]1COCCN1c1nc(-c2cnc(N)cc2C(F)F)cc(N2CCOCC2)n1
